Our source for the EC50 values is US9598431B1, “Compounds useful for inhibiting ROR-gamma-t” (Eli Lilly and Company, priority 2015, dated 2017).

In test [1] the test system is PBMC. The test can be described thus: cells. As to conditions: Homo sapiens, 48 h, read-out: Cell TiterGlo Viability (EC50). In general terms: In ATP-based viability assays light output follows the ATP content of the culture.
The subject of test [2] is PBMC. As to conditions: read-out: Cell TiterGlo Viability (EC50); stimulated human PBMC, 48 hours, percent cell death.

Where two headings read alike, the source gives them in different places.

Take `CCS(=O)(=O)c1ccc(CNC(=O)c2cc3c(s2)C2(CCN(C(C)c4cnc(C(F)(F)F)nc4)CC2)O[C@H](C)C3)nc1` (single isomer, unassigned; isomer 1) [Example 4, (5R′)—N-{[5-(Ethylsulfonyl)pyridine-2-yl]methyl}-5′-methyl-1-{1-[2-(trifluoromethyl)pyrimidin-5-yl]ethyl}-4′,5′-dihydrospiro[piperidine-4,7′thieno[2,3-C]pyran]-2′-carboxamide isomer 1]: the EC50 (in general, the concentration that produces a half-maximal response) in the test on PBMC [1] is greater than 1000 nM. Still for that read-out and setting: in the case of `CCS(=O)(=O)c1ccc(CNC(=O)c2cc3c(s2)C2(CCN([C@@H](C)c4cnc(C(F)(F)F)nc4)CC2)O[C@@H](C)C3)nc1` [Example 2, (5S′)—N-{[5-(Ethylsulfonyl)pyridine-2-yl]methyl}-5′-methyl-1-{(1S)-1-[2-(trifluoromethyl)pyrimidin-5-yl]ethyl}-4′,5′-dihydrospiro[piperidine-4,7′thieno[2,3-C]pyran]-2′-carboxamide] it was greater than 1000 nM. Regarding `CCS(=O)(=O)c1ccc(CNC(=O)c2cc3c(s2)C2(CCN(C(C)c4cnc(C(F)(F)F)nc4)CC2)O[C@H](C)C3)nc1` (single isomer, unassigned; isomer 2) [Example 5, (5R′)—N-{[5-(Ethylsulfonyl)pyridine-2-yl]methyl}-5′-methyl-1-{1-[2-(trifluoromethyl)pyrimidin-5-yl]ethyl}-4′,5′-dihydrospiro[piperidine-4,7′thieno[2,3-C]pyran]-2′-carboxamide isomer 2], the EC50 in the test with PBMC [2] was greater than 1000 nM. As to `CCS(=O)(=O)c1ccc(CNC(=O)c2cc3c(s2)C2(CCN([C@H](C)c4cnc(C(F)(F)F)nc4)CC2)O[C@@H](C)C3)nc1` [Example 3, (5S′)—N-{[5-(Ethylsulfonyl)pyridine-2-yl]methyl}-5′-methyl-1-{(1R)-1-[2-(trifluoromethyl)pyrimidin-5-yl]ethyl}-4′,5′-dihydrospiro[piperidine-4,7′thieno[2,3-C]pyran]-2′-carboxamide], the EC50 with PBMC [1] was greater than 1000 nM. Same read-out and setting: in the case of `CCS(=O)(=O)c1ccc(CNC(=O)c2cc3c(s2)C2(CCN(C(C)c4cnc(C(F)(F)F)nc4)CC2)OC(C)C3)nc1` (centres unmarked) [Example 1, N-{[5-(Ethylsulfonyl)pyridine-2-yl]methyl}-5′-methyl-1-{1-[2-(trifluoromethyl)pyrimidin-5-yl]ethyl}-4′,5′-dihydrospiro[piperidine-4,7′thieno[2,3-C]pyran]-2′-carboxamide] it was greater than 1000 nM.
